In PubChem BioAssay AID623877 (Johns Hopkins Ion Channel Center, 2012):
The entries are a selection whose mix differs from that of the whole data set. Activity calls are given as the source filed them.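 The calls were made as follows: active = fluorescence-ratio B-score plate-corrected deviation score at least 3 library SD below zero, with starting fluorescence score within 5 deviations; inactive = the rest.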

The chains behind the UniProt entries cited, without tags or fusion partners.
UniProt Q8BHY3, whole entry: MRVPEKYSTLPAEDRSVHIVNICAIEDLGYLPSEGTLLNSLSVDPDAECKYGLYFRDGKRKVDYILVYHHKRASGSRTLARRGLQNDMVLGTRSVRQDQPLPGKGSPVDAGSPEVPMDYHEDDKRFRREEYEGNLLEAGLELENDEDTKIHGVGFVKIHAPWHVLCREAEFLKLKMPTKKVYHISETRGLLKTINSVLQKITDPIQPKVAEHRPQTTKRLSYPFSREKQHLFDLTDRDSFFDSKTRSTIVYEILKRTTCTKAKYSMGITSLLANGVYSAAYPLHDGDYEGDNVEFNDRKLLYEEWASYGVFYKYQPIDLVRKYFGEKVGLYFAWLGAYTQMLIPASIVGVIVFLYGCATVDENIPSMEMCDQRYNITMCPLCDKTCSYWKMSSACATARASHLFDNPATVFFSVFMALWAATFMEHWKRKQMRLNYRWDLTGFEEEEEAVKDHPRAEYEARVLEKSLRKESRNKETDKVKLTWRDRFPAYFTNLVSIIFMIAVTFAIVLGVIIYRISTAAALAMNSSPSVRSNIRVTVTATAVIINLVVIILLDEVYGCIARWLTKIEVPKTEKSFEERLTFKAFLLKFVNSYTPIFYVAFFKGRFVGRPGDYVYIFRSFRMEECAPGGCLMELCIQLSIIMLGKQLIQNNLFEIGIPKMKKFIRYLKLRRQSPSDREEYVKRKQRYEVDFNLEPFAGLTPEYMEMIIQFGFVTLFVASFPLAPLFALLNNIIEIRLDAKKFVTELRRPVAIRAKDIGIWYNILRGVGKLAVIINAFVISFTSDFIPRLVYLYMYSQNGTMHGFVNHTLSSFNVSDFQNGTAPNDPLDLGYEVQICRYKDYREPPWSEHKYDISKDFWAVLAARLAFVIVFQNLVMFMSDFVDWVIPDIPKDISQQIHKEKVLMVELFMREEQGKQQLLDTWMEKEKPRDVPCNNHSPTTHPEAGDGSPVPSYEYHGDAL

Each compound was assayed against Anoctamin-1 (Mus musculus) (UniProt Q8BHY3) (assay: mouse ANO1 channel activation – cell-based, HTS, primary screen (AID 623877;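 as to B-score: channel opened by trigger with iodide after compound preincubation; score built on the fluorescence ratio of max minus min over baseline; more negative score means more quench and so TMEM16A activation or potentiation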)). Settings: HEK293 TMEM16A/YFP-H148Q/I152L, iodide quench fluorescence, at 10 µM; stronger effect = lower value.

Row | SMILES | outcome | B-score
1 | CN(C)C(=O)OCCc1n(C)cc[n+]1C | inactive | –
2 | CC1CCN(C(=O)Oc2c(Cl)cc(Cl)c3cccnc23)CC1 | inactive | –
3 | CC(C)(C)c1ccc(OP(C)(=O)O)cc1 | inactive | –
4 | Nc1ccc([As](=O)(O)c2ccc(N)cc2)cc1 | inactive | –
5 | COc1ccccc1OP(C)(=O)Nc1ccccc1Br (stereo unspecified) | inactive | –
6 | C[N+]1=C2C=CC=CC=C2SC12C([N+](=O)[O-])=CC([N+](=O)[O-])=C[C-]2[N+](=O)[O-] (stereo unspecified) | inactive | –
7 | CCN(/C(=N/P(=O)(N1CCOCC1)N1CCOCC1)N1CCOCC1)c1ccc(OC)cc1 | inactive | –
8 | CP(=O)(Nc1ccc(Cl)cc1)Oc1ccc(F)cc1 (stereo unspecified) | inactive | –
9 | CCOC(=O)c1ccc(NP(C)(=O)Oc2ccc(Cl)cc2)cc1 (stereo unspecified) | inactive | –
10 | O=C(Nc1cc([As](=O)(O)O)ccc1O)c1ccccc1 | inactive | –
11 | CP(=O)(OC12CC3CC(CC(C3)C1)C2)OC12CC3CC(CC(C3)C1)C2 | inactive | –
12 | Nc1ccc2c(ccc3cccnc32)n1.O=[N+]([O-])c1cc([N+](=O)[O-])c(O)c([N+](=O)[O-])c1 | inactive | –
13 | O=P1(N(CCCl)CCCl)OCCCS1 (stereo unspecified) | inactive | –
14 | O=[N+]([O-])c1cccc(NC2=NCC(CBr)S2)c1 (stereo unspecified) | inactive | –
15 | COC(=O)C1(C)COP(=O)(Nc2ccccc2)OC1 (stereo unspecified) | inactive | –
16 | O=C(O)CNc1ccc([As](=O)(O)O)cc1 | inactive | –
17 | CC(C)(C)C(=O)NC(Sc1ccncn1)C(Cl)(Cl)Cl (stereo unspecified) | inactive | –
18 | O=[N+]([O-])c1ncn(CCn2ncnc2[N+](=O)[O-])n1 | inactive | –
19 | CCCCOc1ccc(C(=O)NCC2(N3CCCCC3)CCCCC2)cc1OC | inactive | –
20 | Cc1cc(SC(NC(=O)c2ccccc2)C(Cl)(Cl)Cl)nc(C(C)C)n1 (stereo unspecified) | inactive | –
21 | CC1CCNP(=O)(N(CCCl)CCCl)O1 (stereo unspecified) | inactive | –
22 | CCOC(=O)Nc1ccc([As](=O)(O)O)c(O)c1 | inactive | –
23 | CP(=O)(Nc1ccccc1Br)Oc1ccccc1 (stereo unspecified) | inactive | –
24 | O=[N+]([O-])c1ccc(Nc2ccc(Oc3ccc([N+](=O)[O-])cc3[N+](=O)[O-])cc2)c([N+](=O)[O-])c1 | inactive | –

Row | SMILES | outcome | B-score
25 | O=P(Nc1ccccn1)(c1cccc2ccccc12)c1cccc2ccccc12 | inactive | –
26 | Cc1cc(SC(NC=O)C(Cl)(Cl)Cl)ncn1 (stereo unspecified) | inactive | –
27 | COc1ccccc1OP(C)(=O)Nc1ccccc1 (stereo unspecified) | inactive | –
28 | CCOC(=O)Nc1cccc([As](=O)(O)O)c1 | inactive | –
29 | CP(=S)(Nn1cnnc1)Oc1ccccc1 (stereo unspecified) | inactive | –
30 | CCc1ccc(OP(C)(=O)N2CCN(c3ccc([N+](=O)[O-])cc3)CC2)cc1 (stereo unspecified) | inactive | –
31 | O=C(COc1ccccc1)OC1CN2CCC1CC2 (stereo unspecified) | inactive | –
32 | CP(=O)(NC(=O)Nc1ccccc1)Oc1ccccc1 (stereo unspecified) | inactive | –
33 | Cc1cc(C)cc(OP(C)(=O)Nc2ccc(SC(F)(F)F)cc2)c1 (stereo unspecified) | inactive | –
34 | O=C(Nc1ccncc1[N+](=O)[O-])c1ccc([N+](=O)[O-])cc1[N+](=O)[O-] | inactive | –
35 | Cc1cccc(C)c1OP(C)(=O)Nc1ccc(SC(F)(F)F)cc1 (stereo unspecified) | inactive | –
36 | CP(=O)(Nc1ccc(SC(F)(F)F)cc1)Oc1ccc(Cl)cc1 (stereo unspecified) | inactive | –
37 | COP1(=S)c2c(C)nn(CCC#N)c2N=C(c2ccc(F)cc2)N1C (stereo unspecified) | inactive | –
38 | CP(=O)(Oc1ccccc1)OC(c1ccccc1)C(F)(F)F (stereo unspecified) | inactive | –
39 | CP(=O)(Nc1ccccn1)Oc1ccc(Cl)cc1 (stereo unspecified) | inactive | –
40 | CCC(C)N(CC(C)C)C(=S)SC(NC(C)=O)C(Cl)(Cl)Cl (stereo unspecified) | inactive | –
41 | CCOC(=O)c1ccc(NP(C)(=O)Oc2ccc(OC)cc2)cc1 (stereo unspecified) | inactive | –
42 | CCOC(=O)c1ccc(NC(=O)C(C)(CCl)SC)cc1 (stereo unspecified) | inactive | –
43 | O=[N+]([O-])c1cc([N+](=O)[O-])c(O)c([N+](=O)[O-])c1.c1ccc(Oc2ccncc2)cc1 | inactive | –
44 | CCOP(C)(=S)SCC(=O)NC(C)C(=O)O (stereo unspecified) | inactive | –
45 | O=C(OC1CN2CCC1CC2)c1cccc([N+](=O)[O-])c1 (stereo unspecified) | inactive | –
46 | COc1ccc2nc(NP(=O)(c3ccccc3)c3ccccc3)sc2c1 | inactive | –
47 | COc1cc(I)ccc1[As](=O)(O)O | inactive | –
48 | O=P1(N(CCCl)CCCl)Nc2ccccc2N1 | inactive | –

Row | SMILES | outcome | B-score
49 | O=P1(N(CCCl)CCCl)OCCCN1CCCl (stereo unspecified) | inactive | –
50 | O=C(OC1CN2CCC1CC2)C12CC3CC(CC(C3)C1)C2 (stereo unspecified) | inactive | –
51 | CCN(CC)CCCOC(=O)C(O)(c1ccccc1)c1ccccc1 | inactive | –
52 | Cc1cc(=O)[nH]c(N[N+](=O)[O-])n1 | inactive | –
53 | Cc1c2c(nc3ccccc13)SC(C(Cl)Cl)C2 (stereo unspecified) | inactive | –
54 | COc1ccc(N/C(=N/P(=O)(N2CCOCC2)N2CCOCC2)N2CCOCC2)cc1 | inactive | –
55 | O=[N+]([O-])c1cc(Oc2ccc([N+](=O)[O-])cc2C(F)(F)F)cc([N+](=O)[O-])c1 | inactive | –
56 | Cc1ccc2nc3c(c(C)c2c1)CC(C(Cl)Cl)S3 (stereo unspecified) | inactive | –
57 | O=[N+]([O-])c1ccc2c(c1)C=Nc1ccccc1O2 | inactive | –
58 | CC(C)(C)c1ccc(OP(C)(=O)Nc2ccc(SC(F)(F)F)cc2)cc1 (stereo unspecified) | inactive | –
59 | Cc1ccc(OP(=O)(Nc2ccc([N+](=O)[O-])cn2)Oc2ccc(C)cc2)cc1 | inactive | –
60 | Cc1cccc(C)c1OP(C)(N)=O (stereo unspecified) | inactive | –
61 | O=[As](O)(c1ccc(O)cc1)c1ccccc1O | inactive | –
62 | C[As](=O)(O)c1cccc(C(=O)O)c1 | inactive | –
63 | COc1cc(C(=O)NCC2(N3CCOCC3)CCCCC2)ccc1OCC(C)C | inactive | –
64 | O=[N+]([O-])c1ccc(-c2cc([N+](=O)[O-])c(O)c([N+](=O)[O-])c2)cc1 | inactive | –
65 | O=[N+]([O-])c1cc([N+](=O)[O-])c(Nc2cccnc2)c([N+](=O)[O-])c1 | inactive | –
66 | Cc1cc(C)cc(OP(C)(N)=O)c1 (stereo unspecified) | inactive | –
67 | O=C(OC1CN2CCC1CC2)c1cccc2[nH]cnc12 (stereo unspecified) | inactive | –
68 | CCN(CC)C(=S)SC(NC=O)C(Cl)(Cl)Cl (stereo unspecified) | inactive | –
69 | COc1ccccc1OP(C)(=O)Nc1cc(Cl)ccc1C (stereo unspecified) | inactive | –
70 | CC(C)NC(=O)NP(=O)(Oc1ccccc1)Oc1ccccc1 | inactive | –
71 | O=[N+]([O-])c1cc([N+](=O)[O-])c(-c2ccn[nH]2)s1 | inactive | –
72 | COc1ccc(OP(C)(=O)Nc2cccc(F)c2)cc1 (stereo unspecified) | inactive | –

Row | SMILES | outcome | B-score
73 | COc1ccccc1OP(C)(=O)Nc1ccc(C)cc1 (stereo unspecified) | inactive | –
74 | CC(C)c1ccc(OP(=O)(Nc2ccccn2)Oc2ccccc2F)cc1 (stereo unspecified) | inactive | –
75 | Cc1ccc(NP(C)(=O)Oc2ccccc2)c(C)c1 (stereo unspecified) | inactive | –
76 | COC(=O)C1(C)COP(=O)(N2CCCCCC2)OC1 (stereo unspecified) | inactive | –
77 | CCOC(=O)c1ccc(NP(C)(=O)Oc2ccccc2)cc1 (stereo unspecified) | inactive | –
78 | ClCCSc1nnc(-c2cccnc2)o1 | inactive | –
79 | Nc1ccccc1[As](=O)(O)c1ccccc1 | inactive | –
80 | O=C(O)COc1ccc([As](=O)(O)O)cc1[N+](=O)[O-] | inactive | –
81 | CS(=O)(=O)c1cc([N+](=O)[O-])c2no[n+]([O-])c2c1 | inactive | –
82 | CCOP1(=S)c2c(C)nn(CCC#N)c2N=C(c2ccccc2F)N1C (stereo unspecified) | inactive | –
83 | O=C(O)c1cccc(Nc2c([N+](=O)[O-])cc([N+](=O)[O-])cc2[N+](=O)[O-])c1 | inactive | –
84 | O=P(Nc1nccs1)(c1ccccc1)c1nc2ccccc2s1 (stereo unspecified) | inactive | –
85 | O=P(Nc1nccs1)(Oc1ccccc1)Oc1ccccc1 | inactive | –
86 | CN(C)C(=O)c1cc([N+](=O)[O-])cc2c1-c1c(cc([N+](=O)[O-])cc1[N+](=O)[O-])C2=O | inactive | –
87 | O=[N+]([O-])c1ccc2c(c1)nnn2O | inactive | –
88 | CN(C(=O)Cc1ccc(Cl)c(Cl)c1)[C@H]1CC[C@@]2(CCCO2)C[C@@H]1N1CCCC1 | inactive | –
89 | CC1=NCCc2c1[nH]c1ccccc21.O=[N+]([O-])c1cc([N+](=O)[O-])c(O)c([N+](=O)[O-])c1 | inactive | –
90 | N#CCCN(C(=O)COC(=O)C(O)(c1ccccc1)c1ccccc1)c1ccc(F)cc1 | inactive | –
91 | CCOP1(=S)c2c(C)nn(CCC#N)c2N=C(c2ccc(F)cc2)N1C (stereo unspecified) | inactive | –
92 | CN(C(=O)Cc1ccccc1)[C@@H]1CC[C@]2(CCCO2)C[C@H]1N1CCCC1 | inactive | –
93 | NC(=O)Nc1ccc([As](=O)(O)O)cc1 | inactive | –
94 | CCOC(=O)c1ccc(NP(C)(=O)Oc2cc(C)cc(C)c2)cc1 (stereo unspecified) | inactive | –
95 | O=[As](O)(c1cccc(O)c1)c1cccc(O)c1 | inactive | –
96 | Cc1cccc(OCC(=O)OC2CN3CCC2CC3)c1 (stereo unspecified) | inactive | –

Row | SMILES | outcome | B-score
97 | Cc1cc(C)cc(OP(C)(=O)Nc2ccc(C)cc2C)c1 (stereo unspecified) | inactive | –
98 | COc1cc(C(=O)NCC2(N3CCOCC3)CCCCC2)cc(Cl)c1OC(C)C | inactive | –
99 | O=[As](O)(O)c1cccnc1 | inactive | –
100 | CS(=O)(=O)c1ccc(Cl)c(NC(=O)COC(=O)C(O)(c2ccccc2)c2ccccc2)c1 | inactive | –
101 | COc1ccccc1OP(C)(=O)Nc1cccc(Br)c1 (stereo unspecified) | inactive | –
102 | O=C(OC1CN2CCC1CC2)c1ccc(Cl)cc1 (stereo unspecified) | inactive | –
103 | CCOP(=O)(Nc1cccc2ccccc12)OCC | inactive | –
104 | CCCOP(=S)(Nc1nc(N)cc(=O)[nH]1)OCCC | inactive | –
105 | Cc1ccc(C)c(NP(C)(=O)Oc2ccccc2)c1 (stereo unspecified) | inactive | –
106 | CP(=O)(Nc1cccc(Br)c1)Oc1ccccc1 (stereo unspecified) | – | active: -5.28
107 | Cc1cc(C)cc(OP(C)(=O)Nc2ccccn2)c1 (stereo unspecified) | inactive | –
108 | Nc1cccc2c([As](=O)(O)O)cccc12 | inactive | –
109 | Cc1ccc(NCCc2c([N+](=O)[O-])cc([N+](=O)[O-])cc2[N+](=O)[O-])cc1 | inactive | –
110 | Clc1n[nH]nc1-c1nn[nH][15n]1 | inactive | –
111 | CC(C)(C)C(=O)NC(Sc1ncccn1)C(Cl)(Cl)Cl (stereo unspecified) | inactive | –
112 | CCOP(=O)(Nc1ccc(C)cn1)OCC | inactive | –
113 | O=P1(Nc2ccccn2)COc2ccccc2OC1 | inactive | –
114 | CCC1=CC2Cc3nc4ccc(Cl)cc4c(N)c3C(C1)C2 (stereo unspecified) | inactive | –
115 | CCOP(=O)(NC(=NC(C)c1ccccc1)NC(C)c1ccccc1)OCC (stereo unspecified) | inactive | –
116 | O=[N+]([O-])c1cc([N+](=O)[O-])c(-n2nnc3ccccc32)c([N+](=O)[O-])c1 | inactive | –
